Patent US20060079453A1, “Hla binding peptides and their uses” (priority 2002, published 2006)
Where two headings read alike, the source gives them in different places.

Amino acid sequences for entries named in this document (tags omitted). Residues count along the entry.
UniProt Q30154, 30-266: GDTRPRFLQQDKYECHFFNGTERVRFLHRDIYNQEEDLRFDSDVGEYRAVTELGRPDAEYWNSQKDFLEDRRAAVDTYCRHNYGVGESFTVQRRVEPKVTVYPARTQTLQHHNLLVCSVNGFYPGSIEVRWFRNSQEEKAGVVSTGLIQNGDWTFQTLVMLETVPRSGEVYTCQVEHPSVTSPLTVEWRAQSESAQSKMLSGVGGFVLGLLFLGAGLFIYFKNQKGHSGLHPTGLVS

What was measured:
Assay in all cases: biochemical
Assay type in all cases: binding
[1] = target: HLA-B*4402 (Homo sapiens, UniProt P01889, A223V/A65T/A93T/A95T/D201E/D98Y/E176V/E187L/E204Q/E69K/G107R/H137Y/K202T/L105A/L119I/N104T/N87E/Q56L/Q94N/R106L/R155S/R180D/S101N/S121R/S35A/S48T/T118I/V36M/W191S/Y140D/Y91S)
[2] = target: HLA-B*1801 (Homo sapiens, UniProt P01889, A329T/A93T/A95T/C349S/D201E/D54G/D98Y/E176V/E187T/E204Q/E69T/K202T/Q94N/R155S/R180L/S121R/V306I/Y140S/Y195H/Y33H/Y91S)
[3] = target: HLA-B*4001 (Homo sapiens, UniProt P01889, A65T/A93T/A95T/D138N/D98Y/E176V/E69K/N87E/Q56L/Q94N/R180L/S121R/S35A/S48T/T167S/V36M/W171L/Y33H/Y91S)
[4] = target: HLA-B*4501 (Homo sapiens, UniProt P01889, A329T/A65T/A93T/A95T/C349S/D138N/D201E/D98Y/E176V/E187L/E204Q/E69K/H137Y/K202T/L119W/N87E/Q56L/Q94N/R155S/R180D/S121R/S35A/S48T/V127L/V306I/V36M/W191S/Y140L/Y33H/Y91S)
[5] = target: HLA-B*4403 (Homo sapiens, UniProt P01889, A223V/A65T/A93T/A95T/D201E/D98Y/E176V/E187L/E204Q/E69K/G107R/H137Y/K202T/L105A/L119I/N104T/N87E/Q56L/Q94N/R106L/R155S/R180L/S101N/S121R/S35A/S48T/T118I/V36M/W191S/Y140D/Y91S)
[6] = target: HLA-B*4002 (Homo sapiens, UniProt P01889, A65T/A93T/A95T/D138N/D201E/D98Y/E176V/E204Q/E69K/K202T/N87E/Q56L/Q94N/R180L/S48T/Y33H/Y91S)
[7] = target: HLA-DR DRB5*0101 (DR51) (Homo sapiens, UniProt P01903+Q30154); conditions: DRB5 *0101
[8] = target: HLA-DR DRB1*0101 (DR1) (Homo sapiens, UniProt P01903+P01911, A100R/D57E/F55L/F60I/F76Y/I96L/L162R/M171V/P40L/Q125E/R42F/V115G/Y59C)
[9] = target: HLA-DR DRB1*0401 (DR4) (Homo sapiens, UniProt P01903+P01911, A100K/A169T/F76Y/I96L/K127E/L162R/M171V/N62H/P40V/Q125Y/R42H/S133A/S149N/S66Y/V115G/V209L/W38E); conditions: DRB1 *0401
[10] = target: HLA-DR DRB1*0405 (DR4) (Homo sapiens, UniProt P01903+P01911, A100R/A169T/D86S/F76Y/I96L/K127E/L162R/M171V/N62H/P40V/Q125Y/R42H/S133A/S149N/S66Y/V115G/V209L/W38E)
[11] = target: HLA-DR DRB1*1302 (DR13) (Homo sapiens, UniProt P01903+P01911, A100E/A169T/K41T/L162R/M171V/P40S/Q125H/Q178H/Q39Y/Q99D/R42S/S66N/T262R/V115G/W38E/Y61H); conditions: DRBI *1302

Molecule	IC50 [1]	IC50 [2]	IC50 [3]	IC50 [4]	IC50 [5]	IC50 [6]	IC50 [7]	IC50 ([8]; DRB1 *0101)	IC50 [9]	IC50 ([10]; DRB1 *0405)	IC50 [11]	IC50 ([8]; read-out: DRB1 *0101)	IC50 ([10]; read-out: DRB1 *0405)
CC(C)C[C@H](NC(=O)[C@@H]1CCCN1C(=O)[C@H](C)NC(=O)[C@@H](NC(=O)[C@H](Cc1ccc(O)cc1)NC(=O)CNC(=O)[C@H](CC(=O)O)NC(=O)[C@@H](NC(=O)[C@H](CCC(=O)O)NC(=O)[C@@H](N)CO)[C@@H](C)O)C(C)C)C(=O)O	0.386 µM	0.094 µM	0.214 µM	0.302 µM	0.0024 µM	0.184 µM	–	–	–	–	–	–	–
CC(C)C[C@H](NC(=O)[C@H](Cc1ccccc1)NC(=O)[C@H](CC(N)=O)NC(=O)[C@H](CO)NC(=O)[C@H](Cc1ccc(O)cc1)NC(=O)[C@@H](NC(=O)[C@H](CCCNC(=N)N)NC(=O)[C@H](Cc1ccccc1)NC(=O)[C@H](CC(C)C)NC(=O)[C@H](CCCCN)NC(=O)[C@H](CCCNC(=N)N)NC(=O)[C@H](Cc1ccccc1)NC(=O)[C@@H](NC(=O)[C@@H](N)CC(=O)O)[C@@H](C)O)C(C)C)C(=O)N[C@@H](CCCNC(=N)N)C(=O)O	–	–	–	–	–	–	0.026 µM	–	–	–	–	–	–
CC[C@H](C)[C@H](NC(=O)[C@H](CC(C)C)NC(=O)[C@H](C)NC(=O)[C@H](CCCNC(=N)N)NC(=O)[C@@H]1CCCN1C(=O)CNC(=O)[C@H](Cc1c[nH]c2ccccc12)NC(=O)[C@H](CC(C)C)NC(=O)[C@H](Cc1ccccc1)NC(=O)[C@H](CCC(=O)O)NC(=O)[C@@H](N)Cc1ccc(O)cc1)C(=O)O	0.092 µM	0.0052 µM	0.0041 µM	0.45 µM	0.00059 µM	0.0028 µM	–	–	–	–	–	–	–
CC[C@H](C)[C@H](NC(=O)[C@H](Cc1ccc(O)cc1)NC(=O)[C@H](CC(C)C)NC(=O)[C@H](Cc1c[nH]cn1)NC(=O)CNC(=O)[C@@H](NC(=O)[C@@H]1CCCN1C(=O)[C@H](CC(=O)O)NC(=O)[C@@H](NC(=O)[C@H](CCC(=O)O)NC(=O)[C@@H](N)CCSC)C(C)C)[C@@H](C)CC)C(=O)O	0.064 µM	0.0098 µM	0.034 µM	0.095 µM	0.00091 µM	0.016 µM	–	–	–	–	–	–	–
CC(C)C[C@H](NC(=O)CNC(=O)[C@H](Cc1ccc(O)cc1)NC(=O)[C@H](CC(N)=O)NC(=O)[C@H](CCCCN)NC(=O)[C@H](CC(C)C)NC(=O)[C@H](CC(C)C)NC(=O)[C@H](C)NC(=O)[C@H](CC(=O)O)NC(=O)[C@H](CC(=O)O)NC(=O)[C@H](CC(N)=O)NC(=O)[C@H](Cc1c[nH]cn1)NC(=O)[C@H](CO)NC(=O)[C@H](CC(N)=O)NC(=O)[C@@H](N)[C@@H](C)O)C(=O)O	–	–	–	–	–	–	–	16.5 µM	20.3 µM	16.3 µM	5.17 µM	–	–
ALGAQKEAISPPDAA	–	–	–	–	–	–	–	–	–	–	–	0.194 µM	13 µM
CC[C@H](C)[C@H](NC(=O)[C@H](CO)NC(=O)[C@@H](NC(=O)[C@H](CC(C)C)NC(=O)[C@@H]1CCCN1C(=O)[C@H](CO)NC(=O)[C@H](C)NC(=O)[C@H](CCCNC(=N)N)NC(=O)[C@H](CCC(N)=O)NC(=O)[C@H](CCC(=O)O)NC(=O)[C@H](C)N)[C@@H](C)O)C(=O)O	0.0051 µM	0.467 µM	0.019 µM	0.011 µM	0.0025 µM	0.058 µM	–	–	–	–	–	–	–
CC(C)C[C@H](NC(=O)[C@@H]1CCCN1C(=O)[C@H](CO)NC(=O)[C@H](C)NC(=O)[C@@H]1CCCN1C(=O)CNC(=O)[C@H](CC(C)C)NC(=O)[C@H](CC(=O)O)NC(=O)[C@H](CCC(=O)O)NC(=O)[C@@H](N)CC(N)=O)C(=O)O	0.04 µM	0.107 µM	0.281 µM	0.231 µM	0.006 µM	0.15 µM	–	–	–	–	–	–	–
